Data: patent US20120202876A1, “METHODS OF TREATING DISEASES WITH PROANTHOCYANIDIN OLIGOMERS SUCH AS CROFELEMER” (NAPO PHARMACEUTICALS, INC., priority 2009, published 2012)

The chains behind the UniProt entries cited, without tags or fusion partners.
UniProt P13569, whole entry: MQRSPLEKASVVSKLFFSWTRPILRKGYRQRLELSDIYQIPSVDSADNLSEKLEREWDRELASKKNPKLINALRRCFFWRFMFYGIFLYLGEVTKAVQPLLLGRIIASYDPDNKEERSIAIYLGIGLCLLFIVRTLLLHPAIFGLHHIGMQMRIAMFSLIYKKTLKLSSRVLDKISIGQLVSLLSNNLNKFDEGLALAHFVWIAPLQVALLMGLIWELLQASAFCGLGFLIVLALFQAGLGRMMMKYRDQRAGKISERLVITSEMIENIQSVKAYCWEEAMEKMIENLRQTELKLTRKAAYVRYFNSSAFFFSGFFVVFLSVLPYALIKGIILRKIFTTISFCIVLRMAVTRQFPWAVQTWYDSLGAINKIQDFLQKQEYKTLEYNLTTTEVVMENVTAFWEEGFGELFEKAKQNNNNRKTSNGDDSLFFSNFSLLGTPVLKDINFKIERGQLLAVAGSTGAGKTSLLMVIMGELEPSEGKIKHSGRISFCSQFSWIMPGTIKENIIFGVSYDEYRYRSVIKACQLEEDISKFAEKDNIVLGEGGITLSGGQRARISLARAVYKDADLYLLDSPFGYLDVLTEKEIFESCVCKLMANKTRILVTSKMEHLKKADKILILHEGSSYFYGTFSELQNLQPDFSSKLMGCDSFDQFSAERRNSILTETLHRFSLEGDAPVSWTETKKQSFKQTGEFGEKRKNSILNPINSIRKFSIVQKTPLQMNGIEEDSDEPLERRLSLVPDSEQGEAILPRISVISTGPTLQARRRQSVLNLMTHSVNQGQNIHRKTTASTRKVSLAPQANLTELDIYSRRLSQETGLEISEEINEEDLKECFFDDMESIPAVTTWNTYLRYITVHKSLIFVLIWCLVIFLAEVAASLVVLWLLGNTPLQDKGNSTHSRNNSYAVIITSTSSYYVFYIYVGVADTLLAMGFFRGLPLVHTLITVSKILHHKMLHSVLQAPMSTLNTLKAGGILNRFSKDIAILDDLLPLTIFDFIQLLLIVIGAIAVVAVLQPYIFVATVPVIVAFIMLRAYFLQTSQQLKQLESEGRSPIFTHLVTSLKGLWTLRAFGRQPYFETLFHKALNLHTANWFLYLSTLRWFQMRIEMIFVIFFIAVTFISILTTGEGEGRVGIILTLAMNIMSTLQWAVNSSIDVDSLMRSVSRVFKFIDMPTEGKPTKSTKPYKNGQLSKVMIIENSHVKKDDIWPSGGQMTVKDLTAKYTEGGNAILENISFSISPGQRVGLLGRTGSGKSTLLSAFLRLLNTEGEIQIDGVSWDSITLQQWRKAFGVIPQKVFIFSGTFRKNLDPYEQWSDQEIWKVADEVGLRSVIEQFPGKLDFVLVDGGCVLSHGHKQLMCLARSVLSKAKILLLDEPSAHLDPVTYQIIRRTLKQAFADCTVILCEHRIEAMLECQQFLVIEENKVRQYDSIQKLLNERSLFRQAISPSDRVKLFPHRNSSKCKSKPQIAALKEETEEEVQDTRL

Molecular target: T1, human CFTR (Homo sapiens, UniProt P13569)
T1 construct: expressed in transfected cells
Assay: Apical membrane Cl− current in CFTR-expressing FRT cells
Assay type: cell-based
Conditions: CFTR activated by CPT-cAMP; basolateral membrane permeabilized, Cl− gradient; inhibitor in apical solution; read-out: apparent IC50 for inhibition of CFTR Cl− current
Protocol: CFTR Cl^− current was measured in CFTR-expressing FRT cells in which the basolateral membrane was permeabilized by amphotericin B and a transepithelial Cl^− gradient was applied. Under these conditions, the measured current provides a direct quantitative measure of CFTR Cl^− conductance.
Measurements were done to investigate whether the Crofelemer inhibition potency depended on the CFTR activation mechanism. […] The reversibility of crofelemer inhibition of CFTR was investigated, since washout during secretory diarrhea is a concern in the use of a non-absorbable antisecretory agent. […] Following extensive washing, residual CFTR inhibition was determined from the current after re-stimulation by CPT-cAMP. […]
FRT cells (stably expressing CFTR or TMEM16A) were cultured on Snapwell filters until confluence (transepithelial resistance >500 ohm.cm). Short-circuit current was measured in Ussing chambers (Vertical diffusion chamber; Costar) with Ringer's solution bathing the basolateral surface and half-Ringer's bathing the apical surface. […] The basolateral membrane was permeabilized with 20 μM amphotericin B. Short-circuit current was measured using a DVC-1000 voltage-clamp apparatus (World Precision Instruments).

CFTRinh-172
IC50: ~1 µM
